Earlier results on 1 substance are cited in patent US20140271529A1, “ANTIFUNGAL COMPOSITIONS FOR THE TREATMENT OF SECONDARY SKIN AND NAIL INFECTIONS” (ALC Therapeutics, LLC, priority 2013, published 2014).

The conditions of the data set: human, in vivo.

On to cetuximab, for which the “acute paronychia, patients affected” value was “up to 41%”.
